Each structure is given as a SMILES string.

In the assay the test system is cataleptic activity in the mouse. As to the kind of experiment: catalepsy, "bar test" in the mouse. The settings on record: oral, ratio.

With `O=C1NCN(c2ccccc2)C12CCN(CC1CN(c3ccc(F)cc3)c3ccccc3O1)CC2` (stereo not shown) [FCE 25676, 2-(1-phenyl-1,3,8-triazaspiro[4,5]decan-4-one-8-yl)-methyl-4-(4-fluorophenyl)-2,3-dihydro-4H-1,4-benzoxazine], the (ED50 Catalepsy / ED50 Climbing) was 15.3.

Source of the values: patent US5084454A, “2-(piperidinylmethyl)-4-phenyl-2,3-dihydro-4H-1,4-benzoxazines useful as antipsychotics” (Farmitalia Carlo Erba S.r.l., priority 1988, dated 1992).
